Laboratory results published in US7445897B2, “Sequence variants of multi-drug resistance genes, MDR1 and MRP1, and methods for assessment of drug penetration and disposition” (University of Washington, priority 2004, dated 2008).

Test system: P-gp (MDR11199, G1199A) in recombinant LLC-PK1 cells
Conditions: without GF120918

CC(C)CN(C[C@@H](O)[C@H](Cc1ccccc1)NC(=O)O[C@H]1CCOC1)S(=O)(=O)c1ccc(N)cc1 [amprenavir]
decrease in apical-to-basolateral flux in MDR11199 cells compared to MDR1wt cells: 1.7 fold
